Patent publication US20080044484A1, “Use of polymeric nanoparticles for vaccine delivery” (THE REGENTS OF THE UNIVERSITY OF CALIFORNIA, priority 2004, published 2008)

Experiments:
T2 cells [1] = assay: 51Cr-release assay, T2 cells loaded or pulsed with signal sequence constructs, at periods after loading; assay type: cell-based, human; conditions: Eight days after loading
Text: By “loading” of the fusion peptides into the cytosol of T2 cells, cancer cells and dendritic cells is meant use of a technology called “osmotic lysis of pinocytic vesicles.” T2 cells were exposed to hypertonic medium containing the peptide constructs. Pinocytic vesicles form in this medium, and because of their increased internal osmotic pressure, they break in the cytosol when the cells are placed in hypotonic culture medium. The invention is based on a hypothesis that the signal sequence will translocate the minimal tumor-specific peptide from the cytosol into the ER, improving its presentation to CTL.
The induction of CTL in human PBMC was monitored in a conventional ^51Cr-labeling release assay. Briefly, peptide-pulsed TAP^−/HLA-A2.1^+ human T2 cells were incubated with 10 μg of HER2/neu peptides or the MART-1 control peptide for 90 min during labeling with ^51Cr. After washing, the target cells were added to serially diluted effectors in 96-well microplates. After a 6-h incubation at 37° C., supernatants were harvested and counted in a gamma counter. Results are expressed as the percentage of specific lysis and determined as follows: [(experimental cpm−spontaneous cpm)/(maximum cpm−spontaneous cpm)]×100. (Table 36).
Peptide-loaded or pulsed T2 cells were tested for their ability to present HER2/neu peptides at different periods of time after loading or pulsing. […]

T2 cells [2] = assay: IFNγ release by CTL (ELISA) after incubation with peptide-loaded T2 cells; assay type: cell-based, human; conditions: CTL elicited with the corresponding HER2/neu peptide, 20 h, 10^5 CTL/well
Protocol: In interferon gamma-release assays, 10^5 HER2/neu-specific CTL were co-incubated with 10^5 peptide-loaded T2 cells for 20 hours at 37° C. The concentrations of human interferon gamma in co-cultured supernatants were then determined by ELISA. The results of the ELISA experiments are shown in table 37 A-D. These findings are in parallel with the ^51Cr-release experiments, and confirm that the most efficient constructs in facilitating the HER2/neu peptide presentation are the constructs of the type HER-IN-AF. As in the ^51Cr-release experiments, the constructs with the peptides HER369-377 and HER654-662 were the most efficient, while the constructs with the peptide HER789-797 were the least efficient, especially on days 5 and 8 after peptide loading.

[3] = system: breast cancer cells MDA-MB-231; assay: 51Cr-release assay, MDA-MB-231 cells loaded or pulsed with signal sequence constructs; assay type: cell-based, human; conditions: loading; days 1-8 after loading
Text: ^51Cr-release assays were used to test to see if the low HER2/neu-expressing breast cancer cells MDA-MB-231 can be recognized more efficiently by the HER2/neu-specific CTL after loading with the fusion peptides. Determination was also made by ELISA to see if the peptide-loaded breast cancer cells can induce release of interferon gamma by the HER2/neu-specific CTL.
The lysis of the tumor cells by the HER2/neu-specific CTL was monitored in a conventional ^51Cr-labeling release assay. Briefly, peptide-loaded tumor cells were added to serially diluted effectors in 96-well microplates. After a 6-h incubation at 37° C., supernatants were harvested and counted in a gamma counter. Results are expressed as the percentage of specific lysis and determined as follows: [(experimental cpm−spontaneous cpm)/(maximum cpm−spontaneous cpm)]×100.
Peptide-loaded breast cancer cells MDA-MB-231 were tested for their ability to present HER2/neu peptides at different periods of time after loading or pulsing. Tumor cells loaded with the constructs composed of signal sequence at the amino-terminus of the peptides were recognized by CTL up to eight days after loading (FIGS. 12-13, left column). In contrast, constructs with carboxy-terminal position of the signal sequence were not efficient, even when ^51Cr-release assays were performed immediately after loading. […]

[4] = system: breast cancer cells MDA-MB-231; assay: IFNγ release by CTL (ELISA) after incubation with peptide-loaded MDA-MB-231 cells; assay type: cell-based, human; conditions: CTL elicited with the corresponding HER2/neu peptide, 20 h, 10^5 CTL/well
Protocol: In interferon gamma release assays, 10^5 HER2/neu-specific CTL were co-incubated with 10^5 peptide-loaded tumor cells for 20 hours at 37° C. The concentration of human interferon gamma in co-cultured supernatants was then determined by ELISA. The results of the ELISA experiments are shown in Table 39 A-D. These findings are in parallel with the ^51Cr-release experiments, and confirm that the most efficient constructs in facilitating the HER2/neu peptide presentation are the constructs of the type HER-IN-AF.

[5] = system: ICP47-transfected cells MCF7; assay: Functional blockade of TAP by ICP47, 51Cr-release from peptide-loaded cells; assay type: cell-based, human; conditions: for Percent 51Cr Released From ICP47-transfected MCF7 cells loaded with the construct: CTL reactive against the corresponding HER2/neu peptide, 3 days after peptide loading, 6-hour assay
Text: Another aspect in these studies was to determine the mechanisms of enhancement of the antigen presentation by the fusion peptides in human tumor cell lines. Therefore, a new test system was developed utilizing the Herpes Simplex virus (HSV) protein ICP47. ICP47 is a cytoplasmic protein, which interferes with antigen presentation by physically associating with TAP within the cell and inhibiting peptide transport across the ER-membrane. By transfecting the ICP47 gene into several cancer cell lines a novel system for screening different fusion peptides for TAP-independent translocation of peptide antigens through the ER-membrane was generated.
The breast cancer cell line MCF7 was transfected with ICP47, and observed permanent block of the function of TAP, and therefore lack of recognition of these cells by the CTL, which normally recognize and kill them. […] The expression of these antigens was detected by ^51Cr-release assays. […] This confirms that the signal sequence approach is very effective in improving antigen presentation, even in tumor cells with deficiency of antigen processing/presentation.

T2 cells [6] = assay: 51Cr-release assay using T2 cells pulsed with HER2/neu-derived peptides as targets for CTL; conditions: T2 pulsed with the peptide; percentage of specific lysis

Substance | specific 51Cr-release of loaded T2 cells (T2 cells [1]) | Release of IFNγ by CTL, T2 cells loaded with the peptide (T2 cells [2]; Day 1 after peptide loading) [pg/mL] | Release of IFNγ by CTL, T2 cells loaded with the peptide (T2 cells [2]; Day 3 after peptide loading) [pg/mL] | Release of IFNγ by CTL, T2 cells loaded with the peptide (T2 cells [2]; Day 5 after peptide loading) [pg/mL] | Release of IFNγ by CTL, T2 cells loaded with the peptide (T2 cells [2]; Day 8 after peptide loading) [pg/mL] | Recognition by CTL of MDA-MB-231 cells loaded with the peptide (51Cr-release) [3] | Release of IFNγ by CTL, MDA-MB-231 cells loaded with the peptide ([4]; Day 1 after peptide loading) [pg/mL] | Release of IFNγ by CTL, MDA-MB-231 cells loaded with the peptide ([4]; Day 3 after peptide loading) [pg/mL] | Release of IFNγ by CTL, MDA-MB-231 cells loaded with the peptide ([4]; Day 5 after peptide loading) [pg/mL] | Release of IFNγ by CTL, MDA-MB-231 cells loaded with the peptide ([4]; Day 8 after peptide loading) [pg/mL] | Restoration of antigen presentation in ICP47-transfected breast cancer cells ([5]; 51Cr-release) | Percent 51Cr Released From ICP47-transfected MCF7 cells loaded with the construct ([5]; E:T 20:1) [%] | Percent 51Cr Released From ICP47-transfected MCF7 cells loaded with the construct ([5]; E:T 40:1) [%] | 51Cr-release, E:T ratio 1.5:1 (T2 cells [6]) [%] | 51Cr-release, E:T ratio 3.1 (T2 cells [6]) [%] | 51Cr-release, E:T ratio 6:1 (T2 cells [6]) [%] | 51Cr-release, E:T ratio 12:1 (T2 cells [6]) [%] | 51Cr-release, E:T ratio 25:1 (T2 cells [6]) [%] | 51Cr-release, E:T ratio 50:1 (T2 cells [6]) [%]
M A KIFGSLAFL A A A A A G (MAKIFGSLAFLAAAAAG) [HER369-377-IN-AF] | more than 60% | 3288 | 2401 | 1773 | 878 | still lysed | 3381 | 2347 | 1897 | 889 | able to restore the antigen presentation | 24 | 58 |  |  |  |  |  | 
KIFGSLAFL MRYMILGLLALAAVCSA (KIFGSLAFLMRYMILGLLALAAVCSA) [HER369-377-ES] |  | 172 | 142 | 121 | 118 |  | 182 | 187 | 137 | 122 |  |  |  |  |  |  |  |  | 
M R KIFGSLAFL A A V C S A (MRKIFGSLAFLAAVCSA) [HER369-377-IN-ES] |  | 2227 | 2029 | 1663 | 690 |  | 2627 | 2187 | 1778 | 687 |  | 3 | 4 |  |  |  |  |  | 
KIFGSLAFL MTNKCLLQIALLLCFSTTALS (KIFGSLAFLMTNKCLLQIALLLCFSTTALS) [HER369-377-IS] |  | 212 | 112 | 117 | 103 |  | 224 | 131 | 128 | 113 |  |  |  |  |  |  |  |  | 
KIFGSLAFL [HER2/neu369-377, reference compound] |  | 3120 | 127 | 211 | 89 |  | 2820 | 141 | 274 | 99 |  |  |  | 12 | 23 | 42 | 57 | 66 | 94
MRYMILGLLALAAVCSA KIFGSLAFL (MRYMILGLLALAAVCSAKIFGSLAFL) [ES-HER369-377] |  | 3368 | 2377 | 1073 | 592 |  | 3688 | 2417 | 1278 | 577 |  | 2 | 1 |  |  |  |  |  | 
MTNKCLLQIALLLCFSTTALS KIFGSLAFL (MTNKCLLQIALLLCFSTTALSKIFGSLAFL) [IS-HER369-377] |  | 2120 | 1818 | 1323 | 545 |  | 2126 | 1777 | 1444 | 587 |  | 3 | 2 |  |  |  |  |  | 
